# Laboratory results as given in patent publication US10000507B2, “Furo- and thieno-pyridine carboxamide compounds useful as pim kinase inhibitors” (Incyte Corporation, priority 2013, dated 2018).
# By UniProt entry, the sequences of proteins in these tests, tags left out.
# UniProt Q9P1W9, whole entry: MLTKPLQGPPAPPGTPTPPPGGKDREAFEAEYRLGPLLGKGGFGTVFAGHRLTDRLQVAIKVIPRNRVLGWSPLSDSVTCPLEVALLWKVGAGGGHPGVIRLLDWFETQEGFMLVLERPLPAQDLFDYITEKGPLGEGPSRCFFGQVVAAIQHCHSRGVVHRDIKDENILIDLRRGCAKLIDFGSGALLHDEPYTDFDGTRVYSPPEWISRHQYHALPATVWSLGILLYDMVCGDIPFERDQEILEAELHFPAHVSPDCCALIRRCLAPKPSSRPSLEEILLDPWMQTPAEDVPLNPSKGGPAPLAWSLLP
# pIC50: −log10 of the molar value.
# Target: Pim-2 (Homo sapiens (Human), UniProt Q9P1W9)
# Assay: Pim-2 kinase assay
# Conditions: read-out: Pim2 IC50; 1 mM ATP, fluorescein-labeled CREBtide peptide substrate
# Method: Pim-2 kinase assay-20 μL reactions were run in white 384 well polystyrene plates dotted with 0.8 μL compound/DMSO in the assay buffer (50 mM Tris, pH 7.5, 0.01% Tween-20, 5 mM MgCl2, 0.01% BSA, 5 mM DTT), containing 0.05 μm Fluorescein-labeled CREBtide peptide substrate (Invitrogen PV3508), 1 mM ATP, and 1 nM enzyme (Invitrogen PV3649) for 2 h at 25° C. Reactions were stopped by addition of 10 μL TR-FRET Dilution Buffer (Invitrogen PV3574) with 30 mM EDTA and 1.5 nM LanthaScreen Tb-CREB pSer133 antibody (Invitrogen PV3566). After 30 min. incubation at room temperature, plates were read on a PHERAstar FS plate reader (BMG Labtech).
smiles,measurement,value
"Nc1oc2cccnc2c1C(=O)Nc1cnccc1N1C[C@@H](N)[C@H](O)[C@@H](C(F)(F)F)C1 (single isomer, unassigned) [Example 87 (Diastereoisomer 2)]",pIC50,6.00 to 7.00
